Test results from patent US6087376A (priority 1998, dated 2000).

Chains of the proteins cited; added tags and fusions are not shown.
UniProt Q01827, whole entry: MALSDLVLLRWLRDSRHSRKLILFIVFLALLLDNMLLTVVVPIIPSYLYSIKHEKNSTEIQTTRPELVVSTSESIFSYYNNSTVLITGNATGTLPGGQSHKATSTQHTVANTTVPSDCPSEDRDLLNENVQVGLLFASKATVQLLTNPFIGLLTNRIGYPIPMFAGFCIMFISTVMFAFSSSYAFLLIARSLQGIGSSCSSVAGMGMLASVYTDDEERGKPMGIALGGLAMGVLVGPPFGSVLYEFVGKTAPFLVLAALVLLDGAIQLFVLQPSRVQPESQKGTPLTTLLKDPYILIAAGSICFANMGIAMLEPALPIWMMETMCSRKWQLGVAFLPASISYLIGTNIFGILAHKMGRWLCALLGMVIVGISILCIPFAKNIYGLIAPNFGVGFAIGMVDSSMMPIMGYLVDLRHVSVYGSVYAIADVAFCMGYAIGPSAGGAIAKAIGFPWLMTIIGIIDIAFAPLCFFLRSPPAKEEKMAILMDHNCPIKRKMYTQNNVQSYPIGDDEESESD

Assays:
[1] = target: T1, synaptic vesicular monoamine transporter (VMAT2), rat striatal synaptic vesicles (Rattus norvegicus, UniProt Q01827); assay: [3H]DA uptake assay, striatal synaptic vesicles; assay type: biochemical
T1 construct: from tissue; host or cells: rat striatum, synaptic vesicles
Protocol: The homogenate was then centrifuged at 2,000×g for 10 min at 4° C. and the resulting supernatant was centrifuged at 10,000×g for 30 min at 4° C. Synaptosomes (buffy coat) were separated from the underlying mitochondria and cellular debris (reddish pellet) by gentle swirling in 2 mL of 0.32 M sucrose. The enriched synaptosome fraction (2.0 mL) was subjected to osmotic shock by addition of 7 mL distilled H2 0 and was homogenized with 5 up and down strokes of the TEFLON pestle. The osmolarity was restored by the addition of 900 μL of 0.25 M HEPES and 900 μL of 1.0 M neutral potassium-tatrate buffer (pH 7.5) followed by a 20 min centrifugation (20,000×g at 4° C.). The supernatant was then centrifuged for 60 min (55,000×g at 4° C.).
Samples were rapidly filtered through Whatman GF/F filters using the Brandel cell harvester.
Inhibition of synaptosomal and vesicular [^3 H]DA uptake were analyzed by repeated-measures, one-way ANOVA, and by an iterative nonlinear least-squares curve-fitting program (GraphPAD-PRIZM; GraphPAD, San Diego, Calif.) to obtain IC50 values. Dunnett's post hoc test was used to compare treatment means to a single control mean. Also, Duncan's New Multiple Range Test or Fisher's LSD post hoc analysis were used to compare pairs of treatment means. Duncan's New Multiple Range Test was used when significant one-way ANOVA's were obtained or when significant main effects were obtained in the two-way ANOVA's. Fisher's LSD post hoc analysis is a more conservative test, which takes into account error which cumulates during multiple comparisons of pairs of means. Fisher's LSD analysis was used when the interaction term was significant in the two-way ANOVAs, specifically in the post hoc analysis of drug×time interactions. Statistical significance was reached when P<0.05 (two-tailed, unless otherwise indicated).

[2] = target: T2, vesicular monoamine transporter-2 (VMAT2), DTBZ/TBZ site, rat striatal vesicle membranes (Rattus norvegicus, UniProt Q01827); assay: [3H]DTBZ binding to rat striatal vesicles
T2 construct: from tissue; host or cells: rat striatum, synaptic vesicles

| Structure (SMILES) | concentration giving complete inhibition of vesicular [3H]DA uptake [1] [µM] | lowest concentration to produce significant inhibition of vesicular [3H]DA uptake [1] [µM] | lowest concentration to significantly inhibit [3H]DTBZ binding ([2]; 2 nM [3H]DTBZ) [µM] | IC50 ([1]; tetrabenazine, read-out: IC50, inhibition of striatal vesicular [3H]DA uptake) [nM] | specific binding as share of total binding ([2]; 0.5-10 nM [3H]DTBZ) | Bmax, [3H]DTBZ binding (Scatchard) ([2]; 0.5-10 nM, 10 min, 25° C.) [pmol/mg protein] |
| --- | --- | --- | --- | --- | --- | --- |
| CN1[C@@H](CC(=O)c2ccccc2)CCC[C@H]1C[C@H](O)c1ccccc1 [Lobeline, 2-[G-(β-hydroxyphenethyl)-1-methyl-2-piperidyl]-acetophenone] | 10 | 0.3 | 0.3 |  |  |  |
| COc1cc2c(cc1OC)C1CC(=O)C(CC(C)C)CN1CC2 (centres unmarked) [Tetrabenazine] | 1 | 0.07 |  | 77.7 ± 1.3 |  |  |
| COc1cc2c(cc1OC)C1CC(O)C(CC(C)C)CN1CC2 (centres unmarked) [[3H]DTBZ] |  |  |  |  | 60-80% | 8.68 |
